The nature of the assay: Catalyst activity in liquid-phase isomerization of α-isophorone to β-isophorone. The source says: The apparatus for carrying out the isomerization consists of a mushroom-shaped heater, an isomerization flask with attached distillation column, through which a primary mixture composed of α-IP and β-IP is withdrawn, and a pump for recirculating the unreacted α-isophorone left after the purifying distillation of β-IP. […] The suspension is heated to boiling point at normal pressure and the quantity of the α-IP delivered by a Telab pump is coordinated with the quantity of the distillate withdrawn.
The primary distillate obtained is conveyed to a distillation column operating at a partial vacuum of 5 mbar to 100 mbar. […]
Technical sodium hydroxide in various concentrations is stirred into α-IP in the apparatus already described above. With the identical continuous procedure (see Example 1), at the top of the isomerization unit a withdrawal rate of 25 vol.% of a primary distillate is established, based on the quantity of isomerization and the reflux ratio.
Technical potassium carbonate in various concentrations is stirred into α-IP in the apparatus already described above. With the identical continuous procedure (see Example 1), at the top of the isomerization unit a withdrawal rate of 25 vol.% of a primary distillate is established, based on the quantity of isomerization and the reflux ratio. […]

Structures are written as SMILES.

Turning to `O=C(O)O` [Na2 CO3, sodium carbonate], the “space-time yield YR-Z based on the volume of the solution being isomerized” value (0.2 mol.% catalyst) was 0.0635 litersβ-IP /h/literSolution. Besides, for the setting “2 × 10^-1 mol.% catalyst per mol α-IP, boiling point, normal pressure, 25 vol.% withdrawal”, the “Rate of formation of β-IP” value turned out to be 63.5 g β-IP/h/liter α-IP.

These data come from patent US6265617A, “Process for the preparation of 3,5,5-trimethylcyclohexa-3-en-1-one (β-isophorone) by isomerization of 3,5,5- trimethylcyclohexa-2-en-1-one (α-isophorone)” (Degussa-Huls Aktiengesellschaft, priority 1998, dated 2001).
